Assay results: PMC9328650 (British Journal of Pharmacology, 2021)

Tested on: integrin αIIbβ3 activation on human platelets
Conditions: 0.1–5 μM; CRP-XL 0.25 μg·ml^−1

COc1cc(C(=O)NS(=O)(=O)c2ccccc2C)ccc1Cc1cn(C)c2ccc(NC(=O)OC3CCCC3)cc12 [zafirlukast]
Effect on fibrinogen binding: showed a trend towards inhibition but did not reach significance
